Rango complex inh: qHTS Assay for Inhibitors of Rango (Ran-regulated importin-beta cargo) - Importin beta complex formation; Importin subunit beta-1 (Homo sapiens), Q14974; Rango CFP/YFP FRET sensor + importin beta, 45 min; Potency, µM (titrated, usually from 92.2 µM); hit rate 0.031% among 340,000; AID 540263, 2011; also: nearly all actives have a fitted effect of over 15% in size
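Inhibition scored from the CFP 486 nm/YFP 530 nm FRET ratio 45 min after adding 0.125 microM importin beta to 50 nM Rango biosensor preincubated 5 min with compound (room temperature, PBS with DTT, Tween-20, BSA). No-importin wells as positive control.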
S-ASM inh: Inhibitors of Secretory Acid Sphingomyelinase (S-ASM): qHTS; Sphingomyelin phosphodiesterase (Homo sapiens), P17405; placental ASM, HMU-PC fluorogenic substrate, 60 min; Potency, µM (titrated, usually from 57.5 µM), hits mostly inhibitors; hit rate 0.006% among 340,000; active = well fitted inhibition curve with a large enough effect; inconclusive = small, poorly fitted or top-dose-only effect; inactive = no such curve, though single readings can be large or run the other way
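Human placenta-derived ASM preincubated with compound 10 min at room temperature, then reacted with 9 uM (final) fluorogenic HMU-PC substrate for 60 min at 37 C. Stop solution raises pH to 10; fluorescence read at Ex 386/Em 447 nm.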
gsp antagonist: qHTS for Antagonists of gsp, the Etiologic Mutation Responsible for Fibrous Dysplasia/McCune-Albright Syndrome: qHTS. gsp-mutant cells, cAMP HTRF, 30 min. AID 624288, 2012. Potency, µM (highest dose often 76.9 µM), most hits filed as inhibitors. hit rate 0.4% among 340,000; calls by dose curve; cell line not stated here;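 also: intracellular cAMP measured with PDE inhibitor Ro 20-1724 present during compound exposure; nearly all actives have a fitted effect of over 65% in size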
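G418-selected cells were plated in DMEM/10% FBS for 16-24 h at 37C, then treated with compounds plus the PDE inhibitor […] (300 uM solution added) for 30 min at 37C. Intracellular cAMP was measured by HTRF after 30 min lysis at room temperature.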
Rango dissoc inh: qHTS Assay for Inhibitors of RanGTP induced Rango (Ran-regulated importin-beta cargo) - Importin beta complex dissociation; Biochemical FRET Rango-importin beta, RanGTP-induced dissociation; hit rate 0.071% among 340,000; Potency, µM (titrated, usually from 46.1 µM); Snurportin-1 (Homo sapiens) + GTP-binding nuclear protein Ran (Homo sapiens) + Importin …; also: nearly all actives have a fitted effect of over 45% in size
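Rango (0.1 uM)–importin beta (0.25 uM) complex; RanGTP-RCC1 trigger; 45 min RT; CFP/YFP FRET read.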
gsp ag: qHTS for Agonist of gsp, the Etiologic Mutation Responsible for Fibrous Dysplasia/McCune-Albright Syndrome: qHTS; Potency, µM (series often up to 76.9 µM), usual class: activators; hit rate 0.13% among 340,000; gsp mutant cells, cAMP HTRF, 30 min; AID 624287, 2012; active = well fitted activation curve with a large enough effect; inconclusive = small, poorly fitted or top-dose-only effect, or another doubt; inactive = no such curve, though single readings can be large or run the other way; cell line not stated here;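 also: phosphodiesterase inhibitor Ro 20-1724 added with compounds to block cAMP breakdown; nearly all actives have a fitted effect of over 60% in size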
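Cells in DMEM/10% FBS with G418 were pretreated with compounds in DMSO plus […] (300 uM stock) for 30 min at 37C. cAMP was measured by HTRF (cAMP-d2 plus anti-cAMP antibody-K) after 30 min at room temperature.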
Of the large screens only hits and unclear results are named; the others gave an inactive call. This is a sample that favours compounds with a hit; in the whole collection about 0.67% have one here. Unless noted, calls follow the shape of the full dose curve.

Amino acid sequences for entries named in this document (tags omitted).
Importin subunit beta-1 (Homo sapiens), Q14974, UniProt Q14974, whole entry, looked up: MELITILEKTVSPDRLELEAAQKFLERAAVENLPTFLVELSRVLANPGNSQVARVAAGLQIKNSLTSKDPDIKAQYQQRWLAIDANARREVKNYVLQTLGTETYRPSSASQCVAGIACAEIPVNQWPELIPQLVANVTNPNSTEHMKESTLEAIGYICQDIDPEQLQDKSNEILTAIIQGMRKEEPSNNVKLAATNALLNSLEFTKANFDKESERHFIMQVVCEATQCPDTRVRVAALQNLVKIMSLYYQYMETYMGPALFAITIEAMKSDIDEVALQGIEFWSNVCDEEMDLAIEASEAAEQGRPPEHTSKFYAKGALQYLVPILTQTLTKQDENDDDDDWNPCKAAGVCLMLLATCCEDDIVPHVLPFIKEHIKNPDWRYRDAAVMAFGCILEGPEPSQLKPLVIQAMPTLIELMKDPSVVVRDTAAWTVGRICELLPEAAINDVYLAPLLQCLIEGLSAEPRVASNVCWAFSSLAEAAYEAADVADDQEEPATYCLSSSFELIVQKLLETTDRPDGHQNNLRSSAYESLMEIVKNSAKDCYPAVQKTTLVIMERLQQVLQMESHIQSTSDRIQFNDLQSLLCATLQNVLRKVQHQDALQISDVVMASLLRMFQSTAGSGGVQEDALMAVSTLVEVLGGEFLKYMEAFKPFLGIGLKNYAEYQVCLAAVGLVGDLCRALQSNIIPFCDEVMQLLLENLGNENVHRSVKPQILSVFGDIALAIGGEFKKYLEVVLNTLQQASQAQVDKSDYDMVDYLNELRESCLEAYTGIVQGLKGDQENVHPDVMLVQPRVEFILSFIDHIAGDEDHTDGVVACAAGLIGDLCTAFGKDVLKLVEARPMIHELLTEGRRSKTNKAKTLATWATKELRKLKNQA

N#Cc1c(-c2ccccc2)nc(SCC(=O)Nc2ccc(OC(F)(F)Cl)cc2)[nH]c1=O	gsp ag inconclusive
CC1=NOC(=O)/C1=C\c1ccc(-c2ccccc2Br)o1	Rango complex inh inconclusive, gsp ag 16µM
O=C(NN1C(=O)c2ccccc2NC1c1ccc([N+](=O)[O-])o1)c1ccc([N+](=O)[O-])cc1 (stereo not drawn)	Rango complex inh inconclusive, gsp ag 1.8µM
O=C(NN1C(=O)c2ccccc2NC1c1ccc([N+](=O)[O-])o1)c1ccccc1 (stereo not drawn)	none
CC1CCN(N=Nc2nc3c([nH]2)c(=O)n(C)c(=O)n3C)CC1	gsp ag 13µM
CN(C(=S)Nc1ccc(SC(F)F)cc1)C(c1ccccc1)c1ccccc1	gsp antagonist 6.3µM
CCOc1ccc(-n2c(C)cc(/C=C3/C(=N)N4C(=NC3=O)SN=C4S(C)(=O)=O)c2C)cc1	Rango complex inh inconclusive, gsp antagonist 32µM, Rango dissoc inh inconclusive
CCC(C(=O)NCCc1ccccc1OC)n1nc(C)c2c(C)n(-c3ccccc3)nc2c1=O (stereo not drawn)	gsp ag inconclusive
Clc1ccc2c(c1)-c1nnc(Br)n1-c1ccccc1S2	gsp antagonist 20µM
CC(OC(=O)c1cccc(S(=O)(=O)N2CCCCCC2)c1)C(=O)Nc1ccc(S(N)(=O)=O)cc1 (stereo not drawn)	none
CCCNc1nc(Nc2ccc(C)cc2)nc(N2CCCC2)n1	Rango complex inh 46µM, gsp antagonist 32µM
COc1ccccc1Nc1nc(-c2c(C)[nH]c3ccccc23)cs1	Rango complex inh inconclusive, Rango dissoc inh 12µM
CCOC(=O)C1CCN(C(=O)CCn2c(=O)c3cccn3c3cccnc32)CC1	gsp ag inconclusive
Cc1ccc([N+](=O)[O-])cc1N=Nc1c(C)[nH]n(C(N)=S)c1=O	none
Cc1ccc([N+](=O)[O-])cc1N=Nc1c(-c2ccc([N+](=O)[O-])cc2)[nH]n(C(N)=S)c1=O	gsp antagonist 13µM
CC(=O)OC1C(N2CCCCC2)c2c(ccc(/C=C/C(=O)N3CCCCC3)c2O)OC1(C)C (stereo not drawn)	none
Cn1c(=O)c2c(ncn2CC(=O)NC2CCCCC2)n(C)c1=O	gsp ag 13µM
CC(C)NC(=O)Cn1cnc2c1c(=O)n(C)c(=O)n2C	none
O=C(OCN1C(=O)c2ccccc2C1=O)c1cc(S(=O)(=O)N2CCOCC2)ccc1F	Rango complex inh inconclusive, gsp ag 3.2µM
CCOc1ccc(CCNC(=O)Cn2ncn3nc(-c4ccc(OC)cc4)cc3c2=O)cc1OCC	none
O=C(/C=C/c1ccc(Cl)cc1Cl)NCCSc1ccccc1	gsp antagonist 45µM, gsp ag inconclusive
CCN1CC(CN(C)Cc2nc(Cc3ccccc3)no2)CC1=O (stereo not drawn)	none
O=C(CSc1ccccn1)N1CCNC1=O	none
CN(C)S(=O)(=O)Oc1ccsc1C(=O)Nc1ccccc1Cl	gsp antagonist 28µM
CN(C)S(=O)(=O)Oc1ccsc1C(=O)Nc1cccc(Cl)c1Cl	gsp antagonist inconclusive
Cc1ccc(-c2nc(NCc3cccnc3)c3ccccc3n2)cc1	gsp antagonist 35µM
O=[N+]([O-])c1ccc(S(=O)(=O)Nc2ccc(-c3ccc(N4CCCC4)nn3)cc2)cc1	gsp antagonist 20µM
O=C(COC(=O)CNC(=O)c1ccc(Cl)cc1Cl)NNC(=O)c1ccccc1F	none
O=C(NCCO)c1cc2cc(Cl)cc(Cl)c2oc1=O	Rango complex inh inconclusive, Rango dissoc inh 18µM
COCCNC(=O)c1cc2cc(Cl)cc(Cl)c2oc1=O	none
COc1ccc(Oc2c(O)c3ccccc3n(C)c2=O)cc1	gsp antagonist 32µM
Cn1c(=O)c(Oc2ccc(Cl)cc2)c(O)c2ccccc21	none
CC(C)c1ccc(NC(=O)C2CC(=O)N(C(C)C)C2)cc1 (stereo not drawn)	Rango complex inh 4.1µM
COc1ccc(C(=O)NCC(=O)N2CCN(C(=O)c3ccco3)CC2)cc1[N+](=O)[O-]	gsp ag inconclusive
COC(=O)C1=C(C)OC(N)=C(C#N)C1c1ccc(OC)c(CSc2ccccn2)c1 (stereo not drawn)	Rango complex inh inconclusive, gsp antagonist 50µM
COC(=O)C1=C(C)OC(N)=C(C#N)C1c1ccccc1 (stereo not drawn)	Rango complex inh inconclusive, Rango dissoc inh inconclusive
Cn1c(C23CC4CC(CC(C4)C2)C3)n[nH]c1=S	gsp ag inconclusive
COc1cc(C)nc(N(C)S(=O)(=O)c2ccccc2Cl)n1	gsp antagonist 32µM
COCCN(CCOC)C(=O)c1cc2c(=O)n3ccccc3nc2s1	gsp ag 4µM
COc1cccc(NC(=O)Nc2nc(SC)ns2)c1	none
COc1cccc(NC(=O)Nc2nc(SC(C)(C)C)ns2)c1	gsp antagonist 40µM
CC(C)c1nc(N2CCOCC2)c(C#N)c2c1CCC2	gsp antagonist 35µM
CCCc1nc(N2CCOCC2)c(C#N)c2c1CCCC2	Rango complex inh inconclusive, Rango dissoc inh inconclusive
COC(=O)c1c(C)[nH]c(C(=O)C(C)OC(=O)C2CC(=O)N(c3ccc(C)cc3)C2)c1C (stereo not drawn)	gsp antagonist 40µM
COC(=O)c1c(C)[nH]c(C(=O)C(C)OC(=O)C2CC(=O)N(CCc3ccccc3)C2)c1C (stereo not drawn)	none
CC(=O)Oc1ccc(C(=O)Nc2ccccc2NC(=O)c2ccc(OC(C)=O)cc2)cc1	gsp antagonist 25µM
COc1ccc(-c2cccc(C(=O)Nc3ccccc3C)c2)cc1	none
COc1ccc(C)cc1NC(=O)c1cccc(-c2ccc(OC(C)=O)cc2)c1	gsp antagonist 25µM
CCCCSCCCNC(=O)CCCN1C(=O)c2ccccc2Sc2ncccc21	none
Cc1ccccc1OCC(=O)Nc1nnc(COc2ccccc2)s1	none
CCOC(=O)c1cc(NC(=O)c2cccnc2)ccc1N1CCOCC1	none
CCOC(=O)c1ccc(N2CCN(C(C)=O)CC2)c(NC(=O)c2cccnc2)c1	gsp antagonist 50µM
CCC(=O)Nc1sc2c(c1C(=O)OC)CCN(Cc1ccccc1)C2	Rango complex inh inconclusive, Rango dissoc inh 41µM
COC(=O)c1c(NC(=O)C(C)C)sc2c1CCN(Cc1ccccc1)C2	Rango complex inh inconclusive
COc1cc(C(=O)NCC(c2cccs2)N2CCOCC2)c([N+](=O)[O-])cc1OC (stereo not drawn)	none

High-throughput results: PubChem, National Center for Advancing Translational Sciences (NCATS)
